Our source for the Km, kcat and kcat/Km values is publication PMC6290062, “Characterization of a Novel, Cold-Adapted, and Thermostable Laccase-Like Enzyme With High Tolerance for Organic Solvents and Salt and Potent Dye Decolorization Ability, Derived From a Marine Metagenomic Library” (Frontiers in Microbiology, 2018).

The data set relates to CCn1c(=NN=c2sc3cc(S(=O)(=O)O)ccc3n2CC)sc2cc(S(=O)(=O)O)ccc21. Kind of data set: purified protein. Particulars: 0.04 M Britton-Robinson buffer, pH 7.0, 60°C.

As to Lac1326 (uncultured bacterium), the Km was 210 µM, the kcat was found to be 34.4 s⁻¹ and the kcat/Km is 160000 M⁻¹ s⁻¹.
